The chains behind the UniProt entries cited, without tags or fusion partners. Where a name states a change or a piece, a line headed by the entry shows the natural chain unless it says otherwise.
UniProt Q06187: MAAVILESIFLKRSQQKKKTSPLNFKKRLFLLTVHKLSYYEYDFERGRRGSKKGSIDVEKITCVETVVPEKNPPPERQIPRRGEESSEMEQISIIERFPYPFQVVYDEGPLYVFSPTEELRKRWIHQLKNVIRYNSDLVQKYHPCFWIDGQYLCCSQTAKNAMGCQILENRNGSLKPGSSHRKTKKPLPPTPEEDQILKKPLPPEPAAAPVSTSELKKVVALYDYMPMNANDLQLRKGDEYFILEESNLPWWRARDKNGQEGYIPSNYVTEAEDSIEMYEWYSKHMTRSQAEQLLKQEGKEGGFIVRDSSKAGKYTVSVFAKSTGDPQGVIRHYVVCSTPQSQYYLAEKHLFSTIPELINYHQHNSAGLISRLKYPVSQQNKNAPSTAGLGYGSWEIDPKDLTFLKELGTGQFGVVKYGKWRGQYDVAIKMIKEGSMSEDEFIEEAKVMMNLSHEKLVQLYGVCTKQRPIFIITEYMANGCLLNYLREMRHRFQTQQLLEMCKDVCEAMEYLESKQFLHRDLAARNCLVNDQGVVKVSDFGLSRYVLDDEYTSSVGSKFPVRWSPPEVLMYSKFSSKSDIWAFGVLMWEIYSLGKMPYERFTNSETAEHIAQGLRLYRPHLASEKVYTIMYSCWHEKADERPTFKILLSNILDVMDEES

According to US20260060982A1, “USE OF BTK INHIBITOR AND SINGLE-DOSE DRUG” (HUBEI BIO-PHARMACEUTICAL INDUSTRIAL TECHNOLOGICAL INSTITUTE …, priority 2023, published 2026):

Target: BTK (Homo sapiens, UniProt Q06187)
Experiment: Inhibition of BTK kinase activity (HTRF)
Format: biochemical
Procedure: The specific experimental steps were as follows:
The BTK kinase/peptide mix solution was added to the assay plate at 5 μL per well, and centrifuged at 1000 rpm for 1 min. The assay plate was incubated at 23° C. for 15 min.
C. An ATP solution (3968 μL of 1.33× kinase reaction buffer and […] of 10 mM ATP) was prepared, added to the assay plate at 2.5 μL per well, and centrifuged at 1000 rpm for 1 min. The assay plate was incubated at 23° C. for 90 min.
The assay plate was incubated at 23° C. for 60 min and read on the Envision multilabel reader.
E. IC50 results were analyzed using XLFIT5 (Formula 205) from IDBS.

C=CC(=O)Nc1cccc(Nc2nc(Nc3ccc(OCCOC)cc3)ncc2F)c1 [CC-292, reference compound]
IC50: ~20 nM
